Like-named read-outs stand apart in the source and are kept apart here.
Test system: hairy heel wart lesions on the cows
[1] = Day 0, prior to first treatment

O=S(=O)([O-])[O-].[Cu+2] [CuSO4, copper sulfate]
3: Lesion Color Score Distribution: number of cows with Grade Score 2 (Dark Red) [1] | Lesion Appearance Score Distribution: number of cows with Grade Score 3 (Significant dry granulation) (Day 14) | Lesion Color Score Distribution: number of cows with Grade Score 3 (Dark Red/Grayish Black) (Day 14)
5: Lesion Color Score Distribution: number of cows with Grade Score 2 (Dark Red) (Day 5) | Locomotion Score Distribution: number of cows with Grade Score 2 (slightly abnormal gait) (Day 5) | Lesion Color Score Distribution: number of cows with Grade Score 2 (Dark Red) (Day 10) | Lesion Color Score Distribution: number of cows with Grade Score 4 (Very Dark Black; inactive lesion) (Day 14) | Lesion Pain Score Distribution: number of cows with Grade Score 0 (No pain) (Day 14) | Lesion Appearance Score Distribution: number of cows with Grade Score 3 (Significant dry granulation) (Day 19) | Lesion Color Score Distribution: number of cows with Grade Score 3 (Dark Red/Grayish Black) (Day 19)
7: Locomotion Score Distribution: number of cows with Grade Score 2 (slightly abnormal gait) (Day 10)
3.55: Average lesion appearance score (scale 1-5) (Grading Period 5 (Day 19))
3.10: Average lesion appearance score (scale 1-5) (Grading Period 2 (Day 5))
five: Cows that received a lesion appearance score of 4 or 5 (grading period 5)
3.90: Average lesion appearance score (scale 1-5) (Grading Period 4 (Day 14))
6: Lesion Color Score Distribution: number of cows with Grade Score 1 (Bright Red) [1] | Lesion Pain Score Distribution: number of cows with Grade Score 0 (No pain) (Day 19)
4: Lesion Appearance Score Distribution: number of cows with Grade Score 1 (Moist granular) [1] | Lesion Appearance Score Distribution: number of cows with Grade Score 2 (granulated tissue, some moistness) [1] | Locomotion Score Distribution: number of cows with Grade Score 2 (slightly abnormal gait) [1] | Lesion Appearance Score Distribution: number of cows with Grade Score 2 (granulated tissue, some moistness) (Day 5) | Lesion Pain Score Distribution: number of cows with Grade Score 0 (No pain) (Day 5) | Lesion Appearance Score Distribution: number of cows with Grade Score 3 (Significant dry granulation) (Day 10) | Lesion Color Score Distribution: number of cows with Grade Score 3 (Dark Red/Grayish Black) (Day 10)
3.45: Average lesion appearance score (scale 1-5) (Grading Period 3 (Day 10))
1: Lesion Pain Score Distribution: number of cows with Grade Score 2 (Major pain) [1] | Locomotion Score Distribution: number of cows with Grade Score 3 (arched back, abnormal gait) [1] | Locomotion Score Distribution: number of cows with Grade Score 4 (arched back, feet can still bear some weight) [1] | Lesion Appearance Score Distribution: number of cows with Grade Score 3 (Significant dry granulation) (Day 5) | Lesion Color Score Distribution: number of cows with Grade Score 4 (Very Dark Black; inactive lesion) (Day 5) | Lesion Appearance Score Distribution: number of cows with Grade Score 2 (granulated tissue, some moistness) (Day 10) | Lesion Color Score Distribution: number of cows with Grade Score 1 (Bright Red) (Day 10) | Lesion Color Score Distribution: number of cows with Grade Score 4 (Very Dark Black; inactive lesion) (Day 10) | Lesion Pain Score Distribution: number of cows with Grade Score 0 (No pain) (Day 10) | Lesion Pain Score Distribution: number of cows with Grade Score 2 (Major pain) (Day 10) | Locomotion Score Distribution: number of cows with Grade Score 3 (arched back, abnormal gait) (Day 10) | Lesion Appearance Score Distribution: number of cows with Grade Score 2 (granulated tissue, some moistness) (Day 19) | Locomotion Score Distribution: number of cows with Grade Score 2 (slightly abnormal gait) (Day 19) | Locomotion Score Distribution: number of cows with Grade Score 3 (arched back, abnormal gait) (Day 19) | Locomotion Score Distribution: number of cows with Grade Score 4 (arched back, feet can still bear some weight) (Day 19)

Source: patent US8703104B2, “Use of metal astringents for the treatment of hairy heel warts” (Ecolab USA Inc, priority 2007, dated 2014)
